Patent US20100061984A1, “COMPOSITIONS AND METHODS FOR MODULATION OF SUPPRESSOR T CELL ACTIVATION” (The Trustees of the University of Pennsylvania, priority 2006, published 2010)

Chains of the proteins cited; added tags and fusions are not shown. Lines headed by an entry give the natural chain unless they say otherwise; changes in a name come on top.
UniProt Q9UKV0: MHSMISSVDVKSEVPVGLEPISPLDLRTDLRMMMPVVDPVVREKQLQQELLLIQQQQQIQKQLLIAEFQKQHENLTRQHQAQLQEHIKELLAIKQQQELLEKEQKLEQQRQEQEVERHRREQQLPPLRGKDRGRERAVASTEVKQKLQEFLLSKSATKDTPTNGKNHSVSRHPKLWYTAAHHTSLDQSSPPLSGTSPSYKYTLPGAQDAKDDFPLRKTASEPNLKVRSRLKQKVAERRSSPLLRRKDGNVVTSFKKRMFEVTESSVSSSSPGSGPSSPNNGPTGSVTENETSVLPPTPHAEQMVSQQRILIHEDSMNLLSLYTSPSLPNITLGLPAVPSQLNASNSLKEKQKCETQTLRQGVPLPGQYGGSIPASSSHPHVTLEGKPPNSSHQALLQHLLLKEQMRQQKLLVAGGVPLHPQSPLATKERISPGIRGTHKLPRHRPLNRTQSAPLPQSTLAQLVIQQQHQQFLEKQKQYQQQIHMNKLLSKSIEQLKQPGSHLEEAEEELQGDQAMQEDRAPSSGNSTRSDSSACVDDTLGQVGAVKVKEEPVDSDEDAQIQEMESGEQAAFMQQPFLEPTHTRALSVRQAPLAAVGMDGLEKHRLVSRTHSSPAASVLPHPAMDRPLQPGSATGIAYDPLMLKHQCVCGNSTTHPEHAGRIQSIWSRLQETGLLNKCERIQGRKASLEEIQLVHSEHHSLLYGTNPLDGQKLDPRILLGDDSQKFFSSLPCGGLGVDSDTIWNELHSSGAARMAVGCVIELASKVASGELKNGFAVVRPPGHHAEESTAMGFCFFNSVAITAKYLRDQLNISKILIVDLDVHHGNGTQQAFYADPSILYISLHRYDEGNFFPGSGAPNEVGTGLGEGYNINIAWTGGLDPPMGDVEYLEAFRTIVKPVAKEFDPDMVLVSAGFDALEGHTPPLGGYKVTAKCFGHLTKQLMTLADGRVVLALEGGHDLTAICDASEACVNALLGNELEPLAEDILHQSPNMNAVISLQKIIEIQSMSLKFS

What was measured:
[1] = biological target: T1, FOXP3-HDAC9 complex (Homo sapiens, UniProt Q9UKV0); assay: FOXP3-HDAC9 co-immunoprecipitation in TCR plus CD28 stimulated HA-FOXP3a Jurkat T cells; type: cell-based; details: 400 nM TSA, 4 hours, Jurkat T cells expressing HA-FOXP3a (FIG. 15A)
T1 construct: antagonize the FOXP3 complex from its association with endogenous HDAC9; expressed in transfected cells; host or cells: Jurkat E6.1 T cells (FOXP3a transfected; HDAC9 endogenous)

[2] = biological target: T1, FOXP3-HDAC9 complex; assay: endogenous FOXP3-HDAC9 co-immunoprecipitation in activated and expanded human CD4+CD25+ T cells; type: cell-based; details: 400 nM TSA for 4 hours, anti-CD3/CD28 activated and expanded human CD4+CD25+ T cells (FIG. 15B)

disruption of the FOXP3-HDAC9 complex by TCR plus CD28 stimulation [1]: can be reversed
SMILES: CC(/C=C/C(=O)NO)=C\[C@@H](C)C(=O)c1ccc(N(C)C)cc1 [TSA, Trichostatin A]
endogenous FOXP3-HDAC9 association [2]: sufficient to promote endogenous FOXP3-HDAC9 association
